This note sets out measurements from ChEMBL document CHEMBL1133789, “The discovery of anthranilic acid-based MMP inhibitors. Part 1: SAR of the 3-position” (Bioorg Med Chem Lett, 2001).

Sequences of proteins named here, by UniProt entry; tags and fusion partners are left off. A change or cut given only in a name is not applied to a line headed by its entry.
UniProt P14780: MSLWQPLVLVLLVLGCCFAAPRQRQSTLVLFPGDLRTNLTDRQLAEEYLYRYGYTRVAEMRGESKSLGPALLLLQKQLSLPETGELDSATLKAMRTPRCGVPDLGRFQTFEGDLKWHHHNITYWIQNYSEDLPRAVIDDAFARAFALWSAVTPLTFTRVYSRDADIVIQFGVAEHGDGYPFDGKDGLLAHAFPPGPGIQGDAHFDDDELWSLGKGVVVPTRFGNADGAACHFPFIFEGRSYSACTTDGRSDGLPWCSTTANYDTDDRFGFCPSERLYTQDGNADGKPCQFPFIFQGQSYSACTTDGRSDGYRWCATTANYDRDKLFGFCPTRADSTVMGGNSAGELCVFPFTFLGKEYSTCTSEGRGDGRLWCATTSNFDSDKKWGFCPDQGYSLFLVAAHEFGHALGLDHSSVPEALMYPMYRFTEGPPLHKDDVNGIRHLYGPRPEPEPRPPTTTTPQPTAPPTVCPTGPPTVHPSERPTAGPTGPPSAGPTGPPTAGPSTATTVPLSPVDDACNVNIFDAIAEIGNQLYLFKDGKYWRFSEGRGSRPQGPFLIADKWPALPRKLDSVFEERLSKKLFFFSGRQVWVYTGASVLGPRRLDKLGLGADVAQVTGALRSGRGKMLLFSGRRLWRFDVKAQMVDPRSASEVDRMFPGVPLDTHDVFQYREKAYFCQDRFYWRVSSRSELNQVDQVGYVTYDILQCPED

Test [1] deals with Matrix metalloproteinase-9 (Homo sapiens, UniProt P14780). The experiment in a line: Inhibitory activity against Matrix metalloprotease-9.
The target of a further test is Collagenase 3 (Homo sapiens, UniProt P45452).

As a reminder, the IC50 is the concentration needed to halve the response being measured. Consider `COc1ccc(S(=O)(=O)N(Cc2cccnc2)c2c(C)cccc2C(=O)NO)cc1`, for which the figures for the IC50 (in test [1]; against Collagenase 3) were 5 nM and 8 nM, respectively.
